Laboratory results: article PMC3177597 (Bioorganic & medicinal chemistry letters, 2009)
Where two headings read alike, the source gives them in different places.

Chains of the proteins cited; added tags and fusions are not shown. Residues count along the entry.
UniProt P31424, 21-1203: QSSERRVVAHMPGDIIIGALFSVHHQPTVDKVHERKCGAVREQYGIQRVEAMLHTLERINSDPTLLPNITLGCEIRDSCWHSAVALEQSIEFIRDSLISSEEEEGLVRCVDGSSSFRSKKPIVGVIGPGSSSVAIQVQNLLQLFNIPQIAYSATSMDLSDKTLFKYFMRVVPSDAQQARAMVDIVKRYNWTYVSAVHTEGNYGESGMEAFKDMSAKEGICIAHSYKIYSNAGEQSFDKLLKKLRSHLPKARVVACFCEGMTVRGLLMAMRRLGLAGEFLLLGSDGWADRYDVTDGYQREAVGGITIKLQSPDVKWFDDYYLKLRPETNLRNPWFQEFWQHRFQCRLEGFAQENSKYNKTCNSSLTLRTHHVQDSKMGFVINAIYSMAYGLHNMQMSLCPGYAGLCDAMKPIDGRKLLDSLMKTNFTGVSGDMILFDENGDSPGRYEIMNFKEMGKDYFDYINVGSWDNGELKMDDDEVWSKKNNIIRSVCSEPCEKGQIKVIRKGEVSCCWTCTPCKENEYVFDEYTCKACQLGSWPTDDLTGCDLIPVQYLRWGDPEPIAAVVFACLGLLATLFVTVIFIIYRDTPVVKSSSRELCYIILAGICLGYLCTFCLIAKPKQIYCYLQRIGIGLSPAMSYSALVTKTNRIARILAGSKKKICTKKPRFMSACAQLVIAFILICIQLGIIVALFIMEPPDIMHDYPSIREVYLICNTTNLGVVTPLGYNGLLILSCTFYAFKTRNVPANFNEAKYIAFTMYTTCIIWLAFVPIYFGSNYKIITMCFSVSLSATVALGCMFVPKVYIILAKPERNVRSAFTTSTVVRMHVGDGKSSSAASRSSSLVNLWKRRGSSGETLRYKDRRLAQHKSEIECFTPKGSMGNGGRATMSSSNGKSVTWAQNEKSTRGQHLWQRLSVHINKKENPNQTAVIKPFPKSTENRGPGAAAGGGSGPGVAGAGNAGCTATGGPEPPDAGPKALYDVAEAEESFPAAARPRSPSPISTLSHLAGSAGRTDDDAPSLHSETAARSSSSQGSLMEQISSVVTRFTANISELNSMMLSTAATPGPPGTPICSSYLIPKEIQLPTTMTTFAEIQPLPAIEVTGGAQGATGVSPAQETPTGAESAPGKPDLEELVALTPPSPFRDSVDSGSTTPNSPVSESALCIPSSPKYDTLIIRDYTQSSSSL

Target: rat mGluR5 receptor (Rattus norvegicus, UniProt P31424)
Assay: mGluR5 in vitro functional assay
Conditions: for mGluR5 antagonist activity (in words): resynthesized compounds; for loss in potency upon resynthesis: resynthesized compound compared to the HTS stock solution

Row | Structure (SMILES) | mGluR5 antagonist activity (in words) | further results
1 | COc1ccccc1C(=O)Nc1cccc(NC(=O)c2ccc(F)cc2)c1 [14f] | not tolerated | 
2 | COc1ccccc1C(=O)Nc1cccc(NC(=O)c2ccc3c(c2)OCO3)c1 [14j] | not tolerated | 
3 | COc1ccccc1C(=O)Nc1cccc(NC(=O)c2ccco2)c1 [14k] | inactive | 
4 | COc1ccccc1C(=O)Nc1cccc(NC(=O)Cc2ccccc2)c1 [14l] | inactive | 
5 | O=C(Cc1ccccc1)Nc1cccc(NC(=O)c2cccc(Cl)c2)c1 [17k] | inactive | 
6 | O=C(Nc1cccc(NC(=O)C2CC2c2ccccc2)c1)c1cccc(Cl)c1 (stereo not shown) [17l] | inactive | 
7 | O=C(Nc1cccc(NC(=O)C23CC4CC(CC(C4)C2)C3)c1)c1cccc(Cl)c1 [17m] | inactive | 
8 | O=C(Nc1cccc(NC(=O)C2CCCC2)c1)c1cccc(Cl)c1 [17o] | inactive | 
9 | CC(C)C(=O)Nc1cccc(NC(=O)c2cccc(Cl)c2)c1 [17r] | weak inhibition | 
10 | CC(=O)Nc1cccc(NC(=O)c2cccc(Cl)c2)c1 [17s] | weak inhibition | 
11 | COCC(=O)Nc1cccc(NC(=O)c2cccc(Cl)c2)c1 [17t] | no activity | 
12 | O=C(Nc1cccc(O)c1)c1cccc(N2C(=O)c3ccccc3C2=O)c1 [22a] |  | loss in potency (compared to 9): 19 fold
13 | COc1ccccc1NC(=O)c1cccc(N2C(=O)c3ccccc3C2=O)c1 [22c] | lost all the activity | 
14 | O=C(Nc1cccnc1)c1cccc(N2C(=O)c3ccccc3C2=O)c1 [22e] | inactive | 
15 | O=C(Nc1ccccn1)c1cccc(N2C(=O)c3ccccc3C2=O)c1 [22f] | partial antagonist | 
16 | O=C(Nc1ccccc1F)c1cccc(N2C(=O)c3ccccc3C2=O)c1 [22g] | partial antagonist | 
17 | O=C(NC1CC1)c1cccc(N2C(=O)c3ccccc3C2=O)c1 [22i] | inactive | 
18 | O=C(NC1CC2CCC1C2)c1cccc(N2C(=O)c3ccccc3C2=O)c1 (stereo not shown) [22j] | inactive | 
19 | COc1ccccc1C(=O)Nc1cccc(NC(=O)c2cccc(Cl)c2)c1 [compound 8] |  | loss in potency upon resynthesis: 3 fold
20 | O=C(Nc1ccccc1O)c1cccc(N2C(=O)c3ccccc3C2=O)c1 [compound 9, 3-(phthalimidyl)-N-(2-hydroxyphenyl)benzamide] |  | IC50 from the HTS DMSO stock solutions (in words) (HTS DMSO stock solution): submicromolar; % Glu Max (NAM mode, HEK293A cells expressing rat mGluR5, nearly maximal glutamate): 1.59%; IC50 (mGluR5 IC50, resynthesized compound): 417 nM; IC50 (read-out: mGluR5 IC50, HTS DMSO stock solution): 77 nM; loss in potency upon resynthesis: five
21 | O=C(Nc1ccc(Cl)c(-c2nc3ccccc3[nH]2)c1)c1ccc(Br)o1 [compound 10, N-(3-(1H-benzo[d]imidazol-2-yl)-4-chlorophenyl)-5-bromofuran-2-carboxamide] |  | IC50 from the HTS DMSO stock solutions (in words) (HTS DMSO stock solution): submicromolar
